# Patent US4752614A, “Pharmaceutical compositions of tellerium and selenium compounds for the induction of in vivo and in vitro production of cytokines” (Bar-Ilan University, priority 1987, dated 1988)
# Tested on: IL-2 receptors
# Test: Induction of IL-2 receptors of human mononuclear cells, proliferation with recombinant IL-2 (Example 18)
# Assay type: cell-based
# Details: Test B, control (b), 1.5 × 10^-6 units
# Protocol: Human MNC were brought to a concentration of 10^6 cells/ml. RPMI+10% FCS. Aliquots of 0.2 ml. were placed in duplicate wells of microdishes and plates were incubated at 37° C. for 24 hrs. […] Plates were further incubated for 48 hrs. and labelled with 3H thymidine 24 hrs. before harvesting.
# The proliferation was measured by ^3 HT uptake as described by Gillis et al, J. Immunol. […] The results are expressed in counts per minute.
substance,measurement,value
recombinant IL2 (human) Biogen: Cell plus recombinant IL2 (human) Biogen 1.5 × 10^-6 units,proliferation (3HT uptake),6858 counts per minute
